The values below are quoted from earlier work in patent US20180340012A1, “METHODS AND CO[…] TO IMPROVING PROPERTIES OF PHARMACOLOGICAL AGENTS TARGETING NERVOUS SYSTEM” (University of Utah Research Foundation, priority 2006, published 2018).

For this data set, the target named is galanin receptors. The note with it: truncation of GAL(1-16) fragment; read-out: KD towards galanin receptors; cited from earlier work.

pKd: −log10 of the molar value.

Broadly, the pKd is the Kd on a negative log10 scale, so that one unit is a factor of ten. Regarding `CC[C@H](C)[C@H](NC(=O)[C@H](C)NC(=O)[C@H](Cc1c[nH]cn1)NC(=O)[C@@H]1CCCN1C(=O)CNC(=O)[C@H](CC(C)C)NC(=O)[C@H](CC(C)C)NC(=O)[C@H](Cc1ccc(O)cc1)NC(=O)CNC(=O)[C@H](C)NC(=O)[C@H](CO)NC(=O)[C@H](CC(N)=O)NC(=O)[C@H](CC(C)C)NC(=O)[C@@H](NC(=O)[C@H](Cc1c[nH]c2ccccc12)NC(=O)CN)[C@@H](C)O)C(=O)O` [Fragment 1-16], the pKd was 8.15.
